Data as given in PMC8752476 (Journal of molecular biology, 2021).

Protein sequences, listed by entry. Tags and fused reporters are not part of them. Residues count along the entry.
UniProt P00519, 229-515: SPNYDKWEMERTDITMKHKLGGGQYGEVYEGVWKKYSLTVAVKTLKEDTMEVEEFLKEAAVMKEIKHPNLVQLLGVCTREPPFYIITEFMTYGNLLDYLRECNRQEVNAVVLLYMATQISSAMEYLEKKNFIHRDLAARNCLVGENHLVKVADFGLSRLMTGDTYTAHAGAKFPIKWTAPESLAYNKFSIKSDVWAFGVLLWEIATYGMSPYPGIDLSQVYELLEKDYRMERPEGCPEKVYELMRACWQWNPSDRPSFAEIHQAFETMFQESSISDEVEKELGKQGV

Molecular target: Abl kinase domain, myristoyl pocket (Homo sapiens, UniProt P00519)
Assay: ITC, binding to the myristoyl
Conditions: read-out: Kd, myristoyl pocket, for imatinib the catalytic site is already filled with imatinib

O=C(NCCO)c1cccc(-c2cc(Nc3ccc(OC(F)(F)F)cc3)ncn2)c1 [GNF5]
Kd: ~1000 nM
